Test: in vitro
Settings: human

| Structure (SMILES) | CC50 at 48 h [µM] |
| --- | --- |
| COc1ccc(Cc2c(N)nc(-c3ccccn3)nc2N)cc1 [DDD00057570] | > 100 |
| O=C(c1cccs1)N(CCCn1ccnc1)c1nc2ccccc2s1 [DDD00097924] | > 100 |
